Values of other authors, collected in US4098781A, “Polypeptides with morphine-like activity” (American Home Products Corporation, priority 1977, dated 1978).

System: rats
Conditions: injection in the brain ventricle; cited from earlier work

For “H-Tyr-Gly-Gly-Phe-Leu-OH [leucine-enkephalin]”, the analgesia is given as “induce a profound analgesia that is fully reversible by naloxone”.
